Values quoted from earlier work, collected in US10953107B2, “Polypeptide compositions and methods for site-specific targeting of therapeutic agents” (Trustees of Boston University, priority 2018, dated 2021).

Settings: first value of 'x vs. y', second value is an unnamed comparator arm, cited from earlier work

**Q.** Which OS (overall survival) does the source give for Cetuximab here?
**A.** 6.3 vs. 5.9 mo

**Q.** What about the PFS (progression-free survival) of the same substance?
**A.** 3.4 vs 3.0 mo
